{"source": "paper PMC4440444", "about": "(Theranostics, 2015)", "system": "glioma"}
{"substance": "^18F-FDG", "values": [{"measurement": "SUVmax in normal brain tissues, range", "result": "6.22-15.33"}]}
